Test results taken from patent US10166239B2, “Tropomyosin-related kinase (Trk) inhibitors” (Genzyme Corporation, priority 2013, dated 2019).

Amino acid sequences for entries named in this document (tags omitted). Residues count along the entry.
UniProt P04629, 33-796: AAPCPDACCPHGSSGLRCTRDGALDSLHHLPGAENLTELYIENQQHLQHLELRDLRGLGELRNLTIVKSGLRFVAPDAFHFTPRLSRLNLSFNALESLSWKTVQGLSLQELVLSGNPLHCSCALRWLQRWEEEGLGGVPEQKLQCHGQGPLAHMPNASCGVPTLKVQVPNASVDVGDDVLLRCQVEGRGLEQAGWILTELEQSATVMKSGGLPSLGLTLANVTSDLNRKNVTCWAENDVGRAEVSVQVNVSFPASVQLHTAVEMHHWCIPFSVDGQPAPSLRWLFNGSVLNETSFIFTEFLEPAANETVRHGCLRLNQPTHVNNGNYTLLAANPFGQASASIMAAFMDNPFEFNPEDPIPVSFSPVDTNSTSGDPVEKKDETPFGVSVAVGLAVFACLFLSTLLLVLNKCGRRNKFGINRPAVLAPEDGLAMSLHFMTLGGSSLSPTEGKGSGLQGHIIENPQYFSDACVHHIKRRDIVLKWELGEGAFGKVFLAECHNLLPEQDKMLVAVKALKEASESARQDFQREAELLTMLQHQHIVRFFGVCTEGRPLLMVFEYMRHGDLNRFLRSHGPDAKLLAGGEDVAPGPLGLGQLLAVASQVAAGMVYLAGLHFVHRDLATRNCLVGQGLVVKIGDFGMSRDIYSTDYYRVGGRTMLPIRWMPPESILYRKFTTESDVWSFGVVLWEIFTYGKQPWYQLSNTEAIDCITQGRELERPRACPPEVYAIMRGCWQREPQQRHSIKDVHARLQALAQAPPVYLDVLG

Target: TrkA (Homo sapiens (Human), UniProt P04629)
Assay: TrkA activity, off-chip mobility shift assay
Format: biochemical
Conditions: 200 pM TrkA, 55 μM ATP (ATP Km), 180 minutes
From the text: Reagents and consumables were purchased from Sigma Aldrich, Carna Biosciences, or Caliper Life Sciences. All assay reaction conditions for IC50 determinations were within the linear range with respect to time and enzyme concentration. […] The LabChip 3000 separates and measures the fluorescent signal of fluorescein labeled peptide substrate and fluorescein labeled peptide product present in each well. Results are expressed as percent conversion by measuring peak height for both the substrate and product and dividing the product peak height by the sum of peak heights for both substrate and product.

CCOc1cc(Cn2cnc3cc(N4CCN(C)CC4)cnc32)ccc1OCc1ccc(OC)nc1 [Ex. 3-28, 3-(3-Ethoxy-4-((6-methoxypyridin-3-yl)methoxy)benzyl)-6-(4-methylpiperazin-1-yl)-3H-imidazo[4,5-b]pyridine]
IC50: 337 nM
